miR-21 FLuc: raises the signal of a miR-21 reporter | HeLa miR-21 FLuc reporter, luciferase, 48 h | Potency, µM (doses to about 38.3 µM), without a hit: at the top dose reporter change, positive = more light | 340,000 tested, under 10 active | AID 2288; active = well fitted rising curve with a large enough effect; inconclusive = small, poorly fitted or top-dose-only effect; inactive = no such curve, though single readings can be large or run the other way;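 note: % of control where 0% means no effect; miR-21 action dims this reporter so a rising signal means less miR-21 action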
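Compounds were titrated across several concentrations (up to approximately 40 uM) and incubated 48 hours with HeLa miR-21-FLuc reporter cells (miR-21 target sequence downstream of FLuc, endogenous miR-21). Readout was firefly luciferase luminescence after lytic detection reagent.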
A549 viability: A549 cytotoxicity, counter-screen for Nrf2 inhibitors. A549 ARE-Fluc cells, CellTiter-Fluor viability, 18-24 h. Potency, µM (series often up to 46 µM), for inactives: at the top dose activity change, negative = cytotoxicity, most hits filed as inhibitors. hit rate 0.16% among 390,000; note: potency is the fitted concentration of half-maximal effect; % is set by controls: 0 for no effect and ±100 for the full control effect
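Cytotoxicity counterscreen: CellTiter-Fluor fluorescence was measured in A549 ARE_Fluc cells after 18-24 h of compound exposure in a concentration series. The subsequent BugLite luminescent read reports ARE-luciferase activity.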
Nrf2 ARE act: Nrf2 pathway activation | AREc32 ARE-luciferase reporter (MCF7-derived line), luminescence, 24 h | hit rate 0.31% among 410,000 | Potency, µM (top dose mostly 46.1 µM), for inactives: at the highest dose activation, actives largely listed as activators; note: potency is the fitted concentration of half-maximal effect; % of control where 0% means no effect; nearly all actives have a fitted effect of over 65% in size
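Reporter line AREc32 (ARE-Fluc), seeded overnight in OPTI-MEM with 5% FBS; compound pin-transferred, 24 hr at 37 deg C, 5% CO2; luminescent read-out.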
ClpP mod: qHTS Assay for Activators of ClpP; purified B. subtilis ClpP, FRET peptide cleavage, 20 min; Potency, µM (top dose mostly 57.5 µM), inactives show top-dose activity change, negative = active; hit rate 1.9% among 340,000; AID 651965, 2013; active = well fitted falling curve with a large enough effect; inconclusive = small, poorly fitted or top-dose-only effect; inactive = no such curve, though single readings can be large or run the other way; note: potency is the fitted concentration of half-maximal effect; the source files actives as falling curves though it sought activators and does not explain the sign; nearly all actives have a fitted effect of over 65% in size
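Buffer: 100 mM Tris/HCl pH8, 100 mM KCl, 0.05% low protease BSA, 2.5% glycerol, 0.01% Tween-20. ClpP 10 microg/mL final; 20 min RT; delta FRET normalized to ADEP and DMSO controls.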
Nrf2 block: Nrf2 pathway inhibition; A549 ARE-Fluc reporter, luciferase luminescence, 18-24 h; Potency, µM (series often up to 46 µM), for the others: top-dose activity change, negative = inhibition, most hits filed as inhibitors; hit rate 2.1% among 360,000; AID 504444; note: potency is the fitted concentration of half-maximal effect; % is set by controls: 0 for no effect and ±100 for the full control effect; nearly all actives have a fitted effect of over 60% in size
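Nrf2 function is reported as luminescence of an ARE-controlled luciferase in A549 cells. Compounds were tested at several concentrations, and a CellTiter-Fluor read on the same wells flagged cytotoxicity.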
TCR activator: activators of T cell receptors; primary human leukocytes, anti-CD3, IL-2 HTRF, 48 h; 330,000 tested, under 10 active; Potency, µM (top dose mostly 9.22 µM), for the others: at the top dose activation of IL-2 secretion, most hits filed as activators; note: % of control where 0% means no effect
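Using a-CD3 beads without co-stimulation, primary human leukocytes were exposed to compounds for 48 hr. An HTRF IL-2 kit measured the cytokine, with europium-to-d2 energy transfer producing emission at 665nm upon 320nm excitation.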
An asterisk follows results filed as active; ? = inconclusive; . = not tested or not shown; [ ] = dose if it differs, or a comment. An excerpt weighted towards active compounds, which were near 3.7% of everything screened. Unless noted, calls come from the whole dose curve; as a rule, active = well fitted curve in the direction sought with a large enough effect; inconclusive = small, poorly fitted or top-dose-only effect, or another doubt; inactive = no such curve, though single readings can be large; an effect the other way counts as inactive or inconclusive.

Fields: miR-21 FLuc | A549 viability | Nrf2 ARE act | ClpP mod | Nrf2 block | TCR activator
#1 CCOc1cc(/C=C2\CN(CC)C/C(=C\c3ccc(O)c(OCC)c3)C2=O)ccc1O
    ? | ? | ? | . | ? | -4%
#2 O=C1NC(=S)S/C1=C\c1cccc([N+](=O)[O-])c1
    . | ? | 4% | . | 18µM* | -3%
#3 CCN1C/C(=C/c2cccc([N+](=O)[O-])c2)C(=O)/C(=C/c2cccc([N+](=O)[O-])c2)C1
    ? | -14% | 13µM* | -3% | 10% | 0%[46.1 µM]
#4 COc1ccc(-c2nc3c(Cl)cc(C(F)(F)F)cn3c2Cc2ccc(C)cc2)cc1OC
    . | . | 3% | 5% | . | .
#5 CCn1c(C(=O)N2CCCC(C(=O)NCCCc3ccccc3)C2)cc2sccc21 (configuration not stated)
    23% | ? | 3% | 1% | 16µM* | -1%[46.1 µM]
#6 CCn1c(C(=O)N2CCCC(C(=O)NCCc3ccc(C)cc3)C2)cc2sccc21 (configuration not stated)
    19% | -15% | -2% | 1% | ? | 3%
#7 Cc1cccc(C)c1NC(=O)CNC(=O)C(Cc1ccccc1)NC(=O)c1ccccc1 (configuration not stated)
    -11% | 5% | 2% | -7% | 16% | -2%
#8 CSc1ccc(-c2cc3c(c4c2ccn4C)C2CCC3O2)cc1 (configuration not stated)
    . | . | 5% | 5% | . | .
#9 CC(=O)OC[C@H]1O[C@@H](Sc2cccc3cccnc23)[C@H](OC(C)=O)[C@@H](OC(C)=O)[C@H]1OC(C)=O
    -5% | 0% | 10% | 4µM* | 0% | -5%[46.1 µM]
#10 CC(=O)OC[C@H]1O[C@@H](Sc2cccc3cccnc23)[C@H](OC(C)=O)[C@@H](OC(C)=O)[C@@H]1OC(C)=O
    8% | 2% | 0% | 14µM* | -6% | 0%[46.1 µM]

Whole records, looked up by structure:
Record of CCn1c(C(=O)N2CCCC(C(=O)NCCCc3ccccc3)C2)cc2sccc21 (configuration not stated) → miR-21 FLuc: 23%; A549 viability: ?; Nrf2 ARE act: 3%; ClpP mod: 1%; Nrf2 block: 16µM*; TCR activator: -1%[46.1 µM]
Record of CCN1C/C(=C/c2cccc([N+](=O)[O-])c2)C(=O)/C(=C/c2cccc([N+](=O)[O-])c2)C1 → miR-21 FLuc: ?; A549 viability: -14%; Nrf2 ARE act: 13µM*; ClpP mod: -3%; Nrf2 block: 10%; TCR activator: 0%[46.1 µM]

The listing continues.
Fields: miR-21 FLuc | A549 viability | Nrf2 ARE act | ClpP mod | Nrf2 block | TCR activator
#11 COc1cc2c(NC3CCN(C)CC3)nc(N3CCCN(C)CC3)nc2cc1OCC1CCCCN1 (configuration not stated)
    . | . | . | 4% | . | .
#12 Fc1ccc2cc(-c3cccnc3)ncc2c1
    . | -3% | 17% | -26% | ? | 0%
#13 c1cc(-c2cc3cc4c(cc3cn2)OCO4)cs1
    . | 10% | ? | -27% | ? | -5%
#14 Fc1ccc2cc(-c3ccsc3)ncc2c1
    . | 1% | 8.9µM* | -21% | ? | -2%
#15 COc1cc2cnc(-c3ccsc3)cc2cc1OC
    . | 9% | 4.5µM* | 5% | 4% | 9%
#16 Cc1cnc(C(=O)OCC(=O)N2C(C)CCCC2C)cn1 (configuration not stated)
    . | 4% | -1% | 0% | 2% | .
#17 C=CCn1c(COc2cccc(C)c2C)nnc1SCC(=O)N1CCN(c2ccccc2)CC1
    28% | ? | 1% | -2% | 16µM* | 3%[46.1 µM]
#18 CCn1c(COc2cc(C)cc(C)c2)nnc1SCC(=O)N1CCN(c2ccccc2)CC1
    -10% | -10% | 0% | -1% | ? | -1%
#19 C=CCn1c(SCC(=O)N2CCN(c3ccc(F)cc3)CC2)nnc1-c1ccco1
    11% | -14% | 0% | 2% | 18µM* | 9%[46.1 µM]
#20 CCn1c(COc2c(C)cccc2C)nnc1SCC(=O)N1CCN(c2ccccc2)CC1
    27% | ? | 3% | -4% | 18µM* | -3%
#21 C=CCn1c(COc2cccc3ccc(C)nc23)nnc1SCC(=O)OC
    0% | -7% | 0% | 28µM* | 10% | -4%
#22 COc1ccc(/C=C/C(=O)NNC(=O)c2ccncc2)c(OC)c1
    . | -2% | -1% | -8% | 7% | .
#23 CCCCN(CCCC)Cc1cc(=O)oc2ccc3ccccc3c12
    . | . | -1% | ? | . | .
#24 COc1ccc(C#CC2=CC(=O)CC(C)(C)C2)cc1
    . | . | 13µM* | -1% | . | .
#25 CCc1ccc(C#CC2=CC(=O)CC(C)(C)C2)cc1
    . | . | ? | -5% | . | .
#26 COc1ccccc1C#CC1=CC(=O)CC(C)(C)C1
    . | . | 14µM* | -3% | . | .
